# Molecular target: T1, 17-beta-hydroxysteroid dehydrogenase type 2 (Homo sapiens) (UniProt P37059)
# T1 sequence (whole entry): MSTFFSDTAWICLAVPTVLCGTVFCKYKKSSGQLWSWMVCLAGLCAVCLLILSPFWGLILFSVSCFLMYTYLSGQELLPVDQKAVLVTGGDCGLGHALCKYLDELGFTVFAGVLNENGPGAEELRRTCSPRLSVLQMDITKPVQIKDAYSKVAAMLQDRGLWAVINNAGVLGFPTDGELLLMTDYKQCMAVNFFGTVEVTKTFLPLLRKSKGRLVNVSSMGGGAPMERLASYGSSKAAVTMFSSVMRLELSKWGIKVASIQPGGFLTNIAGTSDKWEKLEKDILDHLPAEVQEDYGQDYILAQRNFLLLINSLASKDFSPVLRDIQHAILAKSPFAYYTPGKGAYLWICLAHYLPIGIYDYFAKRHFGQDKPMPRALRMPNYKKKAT
# Settings: 1 uM
smiles,measurement,value
C[C@]12CC[C@@H]3c4ccc(O)cc4CC[C@H]3[C@@H]1CC[C@@]21CCCC(=O)O1,inhibition,85%

# — ChEMBL document CHEMBL3351838, “Ligand-based pharmacophore modeling and virtual screening for the discovery of novel 17β-hydroxysteroid dehydrogenase 2 inhibitors” (J Med Chem, 2014)
